Earlier results on 1 molecule are cited in patent publication US20030170176A1, “Individualization of therapy with antipsychotics” (McGill University, priority 2001, published 2003).

Each structure is given as a SMILES string.

The conditions of this data set: CYP2D6 extensive metabolizers; cited from earlier work.

For the molecule `Cc1nc2n(c(=O)c1CCN1CCC(c3noc4cc(F)ccc34)CC1)CCCC2` [risperidone], the “individuals suffering from side effects” value was 35%.
